The values below are quoted from earlier work in PMC3748600 (Chembiochem : a European journal of chemical biology, 2012).

Amino acid sequences for entries named in this document (tags omitted).
UniProt P34972, whole entry: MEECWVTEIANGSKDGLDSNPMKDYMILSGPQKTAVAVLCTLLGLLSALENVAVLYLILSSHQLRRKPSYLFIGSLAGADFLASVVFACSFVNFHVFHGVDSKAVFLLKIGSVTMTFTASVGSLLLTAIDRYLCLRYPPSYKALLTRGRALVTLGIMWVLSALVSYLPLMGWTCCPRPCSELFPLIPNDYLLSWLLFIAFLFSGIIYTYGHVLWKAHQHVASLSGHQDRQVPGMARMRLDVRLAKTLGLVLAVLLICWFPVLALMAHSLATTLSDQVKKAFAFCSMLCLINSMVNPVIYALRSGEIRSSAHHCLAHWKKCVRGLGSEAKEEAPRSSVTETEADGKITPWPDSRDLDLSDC

This data set has as its target CB2 receptor (Homo sapiens, UniProt P34972). The conditions noted are these: read-out: Ki for CB2; cited from earlier work.

With `CCCCC/C=C\C/C=C\C/C=C\C/C=C\CCCC(=O)NCCO` [Compound 1, N-arachidonoylethanolamine], the Ki was 1900 nM.

For orientation: Ki means the equilibrium dissociation constant of an inhibitor or competing ligand from its target.
